Experimental data published in patent publication US9492444B2, “Extruded extended release abuse deterrent pill” (Pharmaceutical Manufacturing Research Services, Inc., priority 2013, dated 2016).

Tests used:
[1] = cited from earlier work
[2] = General solubility of exemplary components; format: physicochemical; conditions: 200 proof ethanol, filtered through 0.22 micrometer PTFE filter
Text: The following table lists the relative solubility of exemplary components of a formulation. A number of different dyes are listed along with their solubility information taken from the various literature sources and tested experimentally (200 proof ethanol and filtered through a 0.22 micrometer PTFE filter).

O=S(=O)([O-])c1ccc(N=Nc2c(O)ccc3cc(S(=O)(=O)[O-])ccc23)cc1.[Na+].[Na+] [Yellow #6]
Yes: Alcohol Solubility (Literature) [1] | Water Solubility [1] | Alcohol Solubility (tested) [2]
